Amino acid sequences for entries named in this document (tags omitted).
UniProt P50406, whole entry: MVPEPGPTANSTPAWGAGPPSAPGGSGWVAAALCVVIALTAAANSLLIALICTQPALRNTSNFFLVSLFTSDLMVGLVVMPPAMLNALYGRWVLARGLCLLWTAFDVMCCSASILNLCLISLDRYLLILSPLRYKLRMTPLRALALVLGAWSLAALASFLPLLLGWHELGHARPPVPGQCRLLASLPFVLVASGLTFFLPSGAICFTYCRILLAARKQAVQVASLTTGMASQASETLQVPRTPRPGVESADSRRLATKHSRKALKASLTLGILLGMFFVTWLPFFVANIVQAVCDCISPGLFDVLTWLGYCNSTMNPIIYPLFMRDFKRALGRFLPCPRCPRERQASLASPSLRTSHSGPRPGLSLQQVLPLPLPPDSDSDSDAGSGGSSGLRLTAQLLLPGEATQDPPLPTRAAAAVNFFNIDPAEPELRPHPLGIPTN
UniProt Q9R1C8, whole entry: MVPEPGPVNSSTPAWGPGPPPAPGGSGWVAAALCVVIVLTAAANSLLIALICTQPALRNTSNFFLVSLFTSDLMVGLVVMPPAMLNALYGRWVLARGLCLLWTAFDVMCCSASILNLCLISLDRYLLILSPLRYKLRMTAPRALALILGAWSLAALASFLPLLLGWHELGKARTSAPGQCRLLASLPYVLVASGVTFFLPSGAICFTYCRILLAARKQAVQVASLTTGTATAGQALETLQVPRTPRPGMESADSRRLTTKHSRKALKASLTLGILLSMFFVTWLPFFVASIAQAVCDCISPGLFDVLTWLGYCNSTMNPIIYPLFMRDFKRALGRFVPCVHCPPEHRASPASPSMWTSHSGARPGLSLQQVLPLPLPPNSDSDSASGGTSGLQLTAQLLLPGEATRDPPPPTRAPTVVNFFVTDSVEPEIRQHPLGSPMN
UniProt Q9R1C8, whole entry C110A: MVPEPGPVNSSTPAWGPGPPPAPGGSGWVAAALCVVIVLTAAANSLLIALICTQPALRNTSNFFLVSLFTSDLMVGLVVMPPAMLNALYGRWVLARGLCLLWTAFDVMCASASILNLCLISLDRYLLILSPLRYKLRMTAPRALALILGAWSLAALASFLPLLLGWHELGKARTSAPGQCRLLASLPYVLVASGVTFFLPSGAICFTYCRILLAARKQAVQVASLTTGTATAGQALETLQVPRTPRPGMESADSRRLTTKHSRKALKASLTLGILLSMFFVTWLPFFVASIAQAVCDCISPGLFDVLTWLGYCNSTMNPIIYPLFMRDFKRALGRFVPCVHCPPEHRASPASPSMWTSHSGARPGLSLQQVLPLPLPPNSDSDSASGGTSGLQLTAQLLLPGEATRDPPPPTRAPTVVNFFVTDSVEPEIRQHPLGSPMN

In ChEMBL document CHEMBL1156827, “Benzimidazole derivatives as new serotonin 5-HT6 receptor antagonists. Molecular mechanisms of receptor inactivation” (J Med Chem, 2010):

Tests used:
Type in all cases: functional, cell-based, COS-7
[1] = biological target: 5-hydroxytryptamine receptor 6 (Homo sapiens, UniProt P50406); test: Antagonist activity at human 5HT6 receptor expressed in COS7 cells assessed as inhibition of serotonin-induced cAMP accumulation by HTRF assay
Procedure, shortened: (§1)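 COS-7 cells were transfected with wild-type or mutant receptor cDNA and seeded at 100000 cells/well. At 24 h post-transfection, cells were stimulated for 10 min at 37 °C with eight concentrations of test ligand plus 100 μM 5-HT. cAMP was read by HTRF. […] Three independent experiments in triplicate, mean ± SEM.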

[2] = biological target: 5-hydroxytryptamine receptor 6 (Mus musculus, UniProt Q9R1C8); test: Antagonist activity at mouse wild type 5HT6 receptor expressed in COS7 cells assessed as inhibition of serotonin-induced cAMP accumulation by HTRF assay; procedure, shortened: as §1
[3] = biological target: 5-hydroxytryptamine receptor 6 (Mus musculus, UniProt Q9R1C8, C110A); test: Antagonist activity at mouse 5HT6 receptor C3.36A mutant expressed in COS7 cells assessed as inhibition of serotonin-induced cAMP accumulation by HTRF assay; procedure, shortened: as §1

Compound CN1CCN(c2cccc3[nH]c(C(=O)c4cccc5ccccc45)nc23)CC1 has a Ki [1] of 5 nM, a Ki [2] of 5 nM and a Ki [3] of 34 nM.
